Measured values from patent US12249406B2.

Chains of the proteins cited; added tags and fusions are not shown.
UniProt P00519, whole entry: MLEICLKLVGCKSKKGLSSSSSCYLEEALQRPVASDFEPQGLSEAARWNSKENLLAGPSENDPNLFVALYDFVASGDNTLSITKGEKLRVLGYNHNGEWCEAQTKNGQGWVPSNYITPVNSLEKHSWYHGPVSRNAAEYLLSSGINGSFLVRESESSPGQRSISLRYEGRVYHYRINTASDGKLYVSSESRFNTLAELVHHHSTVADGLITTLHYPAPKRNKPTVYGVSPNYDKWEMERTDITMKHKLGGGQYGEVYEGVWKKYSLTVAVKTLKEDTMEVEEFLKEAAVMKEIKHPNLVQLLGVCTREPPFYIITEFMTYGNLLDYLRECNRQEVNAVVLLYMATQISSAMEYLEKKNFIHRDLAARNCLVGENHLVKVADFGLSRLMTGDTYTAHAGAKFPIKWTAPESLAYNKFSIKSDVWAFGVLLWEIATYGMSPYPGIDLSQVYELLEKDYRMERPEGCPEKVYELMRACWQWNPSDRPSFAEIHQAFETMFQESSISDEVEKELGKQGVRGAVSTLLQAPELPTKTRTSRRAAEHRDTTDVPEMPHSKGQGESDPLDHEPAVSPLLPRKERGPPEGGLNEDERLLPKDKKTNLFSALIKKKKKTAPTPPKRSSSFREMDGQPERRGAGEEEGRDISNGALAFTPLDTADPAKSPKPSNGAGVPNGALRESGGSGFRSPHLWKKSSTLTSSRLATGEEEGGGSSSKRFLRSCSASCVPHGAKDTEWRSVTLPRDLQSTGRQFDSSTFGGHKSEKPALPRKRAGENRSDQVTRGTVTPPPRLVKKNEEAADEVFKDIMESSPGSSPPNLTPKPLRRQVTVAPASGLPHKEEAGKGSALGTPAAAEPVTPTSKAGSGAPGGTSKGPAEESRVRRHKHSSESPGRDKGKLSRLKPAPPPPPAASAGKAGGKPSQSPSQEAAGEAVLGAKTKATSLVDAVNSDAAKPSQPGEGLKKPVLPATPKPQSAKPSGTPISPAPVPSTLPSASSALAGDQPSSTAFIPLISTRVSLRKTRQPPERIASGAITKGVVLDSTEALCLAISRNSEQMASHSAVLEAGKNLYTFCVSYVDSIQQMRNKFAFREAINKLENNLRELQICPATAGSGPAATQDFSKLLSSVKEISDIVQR

Molecular target: protein ABL1 (Homo sapiens, UniProt P00519)
Assay: Activity (binding force, IC50) of compounds against protein ABL1
Conditions: read-out: binding force, IC50 (50% inhibitory concentration); protein ABL1 (kinase)

COc1ccccc1Oc1ccc2[nH]nc(-c3nc4ccc(N5CCC(N6CCCCC6)CC5)cc4[nH]3)c2c1 was tested, and the IC50 was 1000 nM.
